{"source": "patent US20250134864A1", "about": "“METHODS OF WEIGHT LOSS AND PRESERVING SKELETAL MUSCLE MASS” (published 2025)", "assay": "Phase 2a trial: liver fat content by MRI-PDFF", "conditions": "for Non-responder (liver fat by MRI-PDFF) / Responder (>30% liver fat reduction by MRI-PDFF): Day 61; for Relative reduction in liver fat: overall population; for Placebo-corrected mean percent change from baseline in liver fat (MRI-PDFF): range over doses", "key": {"[1]": {"conditions": "150 mg once daily oral, FAS population"}, "[2]": {"conditions": "150 mg once daily oral, HbA1c 5.7%-9.0% subgroup"}, "[3]": {"conditions": "150 mg, HbA1c 5.7% to 9.0% Subgroup"}, "[4]": {"conditions": "300 mg once daily oral, FAS population"}, "[5]": {"conditions": "300 mg once daily oral, HbA1c 5.7%-9.0% subgroup"}, "[6]": {"conditions": "300 mg, HbA1c 5.7% to 9.0% Subgroup"}, "[7]": {"conditions": "450 mg once daily oral, FAS population"}, "[8]": {"conditions": "450 mg once daily oral, HbA1c 5.7%-9.0% subgroup"}, "[9]": {"conditions": "450 mg, HbA1c 5.7% to 9.0% Subgroup"}}}
{"compound": "Cn1c(COc2ccc([N+](=O)[O-])cc2[N+](=O)[O-])cnc1[N+](=O)[O-]", "values": [{"measurement": "Non-responder (liver fat by MRI-PDFF)", "setting": "[1]", "value": "10 (50.0%)"}, {"measurement": "Responder (>30% liver fat reduction by MRI-PDFF)", "setting": "[1]", "value": 40, "unit": "%"}, {"measurement": "Responder (>30% liver fat reduction by MRI-PDFF)", "setting": "150 mg once daily oral, FAS population, listed as CM1", "value": "8 (40.0%)"}, {"measurement": "Non-responder (liver fat by MRI-PDFF)", "setting": "[2]", "value": "3 (42.9%)"}, {"measurement": "Responder (>30% liver fat reduction by MRI-PDFF)", "setting": "[2]", "value": 43, "unit": "%"}, {"measurement": "Responder (>30% liver fat reduction by MRI-PDFF)", "setting": "150 mg once daily oral, HbA1c 5.7%-9.0% subgroup, listed as CM1", "value": "3 (42.9%)"}, {"measurement": "MRI-Proton Density Fat Fraction, Day 61, Mean", "setting": "150 mg, All Subjects", "value": 13.7, "unit": "%"}, {"measurement": "MRI-Proton Density Fat Fraction, Day 61, Median", "setting": "150 mg, All Subjects", "value": 12.7, "unit": "%"}, {"measurement": "MRI-Proton Density Fat Fraction, Day 61 − Baseline, LS Mean", "setting": "150 mg, All Subjects", "value": "−4.64", "unit": "%"}, {"measurement": "MRI-Proton Density Fat Fraction, Day 61 − Baseline, Mean", "setting": "150 mg, All Subjects", "value": "−5.0", "unit": "%"}, {"measurement": "MRI-Proton Density Fat Fraction, Day 61 − Baseline, Median", "setting": "150 mg, All Subjects", "value": "−5.8", "unit": "%"}, {"measurement": "MRI-Proton Density Fat Fraction, Difference in LS Mean, Compound 1 − Placebo, Day 61", "setting": "150 mg, All Subjects", "value": "−5.21", "unit": "%"}, {"measurement": "MRI-Proton Density Fat Fraction, Day 61, Mean", "setting": "[3]", "value": 16.2, "unit": "%"}, {"measurement": "MRI-Proton Density Fat Fraction, Day 61, Median", "setting": "[3]", "value": 19.0, "unit": "%"}, {"measurement": "MRI-Proton Density Fat Fraction, Day 61 − Baseline, LS Mean", "setting": "[3]", "value": "−5.35", "unit": "%"}, {"measurement": "MRI-Proton Density Fat Fraction, Day 61 − Baseline, Mean", "setting": "[3]", "value": "−6.6", "unit": "%"}, {"measurement": "MRI-Proton Density Fat Fraction, Day 61 − Baseline, Median", "setting": "[3]", "value": "−8.0", "unit": "%"}, {"measurement": "MRI-Proton Density Fat Fraction, Difference in LS Mean, Compound 1 − Placebo, Day 61", "setting": "[3]", "value": "−5.83", "unit": "%"}, {"measurement": "Non-responder (liver fat by MRI-PDFF)", "setting": "[4]", "value": "5 (23.8%)"}, {"measurement": "Responder (>30% liver fat reduction by MRI-PDFF)", "setting": "[4]", "value": 71, "unit": "%"}, {"measurement": "Responder (>30% liver fat reduction by MRI-PDFF)", "setting": "300 mg once daily oral, FAS population, listed as CM1", "value": "15 (71.4%)"}, {"measurement": "Non-responder (liver fat by MRI-PDFF)", "setting": "[5]", "value": "1 (12.5%)"}, {"measurement": "Responder (>30% liver fat reduction by MRI-PDFF)", "setting": "[5]", "value": 75, "unit": "%"}, {"measurement": "Responder (>30% liver fat reduction by MRI-PDFF)", "setting": "300 mg once daily oral, HbA1c 5.7%-9.0% subgroup, listed as CM1", "value": "6 (75.0%)"}, {"measurement": "MRI-Proton Density Fat Fraction, Day 61, Mean", "setting": "300 mg, All Subjects", "value": 11.2, "unit": "%"}, {"measurement": "MRI-Proton Density Fat Fraction, Day 61, Median", "setting": "300 mg, All Subjects", "value": 10.4, "unit": "%"}, {"measurement": "MRI-Proton Density Fat Fraction, Day 61 − Baseline, LS Mean", "setting": "300 mg, All Subjects", "value": "−6.21", "unit": "%"}, {"measurement": "MRI-Proton Density Fat Fraction, Day 61 − Baseline, Mean", "setting": "300 mg, All Subjects", "value": "−6.2", "unit": "%"}, {"measurement": "MRI-Proton Density Fat Fraction, Day 61 − Baseline, Median", "setting": "300 mg, All Subjects", "value": "−5.9", "unit": "%"}, {"measurement": "MRI-Proton Density Fat Fraction, Difference in LS Mean, Compound 1 − Placebo, Day 61", "setting": "300 mg, All Subjects", "value": "−6.77", "unit": "%"}, {"measurement": "MRI-Proton Density Fat Fraction, Day 61, Mean", "setting": "[6]", "value": 14.0, "unit": "%"}, {"measurement": "MRI-Proton Density Fat Fraction, Day 61, Median", "setting": "[6]", "value": 16.1, "unit": "%"}, {"measurement": "MRI-Proton Density Fat Fraction, Day 61 − Baseline, LS Mean", "setting": "[6]", "value": "−6.41", "unit": "%"}, {"measurement": "MRI-Proton Density Fat Fraction, Day 61 − Baseline, Mean", "setting": "[6]", "value": "−7.1", "unit": "%"}, {"measurement": "MRI-Proton Density Fat Fraction, Day 61 − Baseline, Median", "setting": "[6]", "value": "−9.0", "unit": "%"}, {"measurement": "MRI-Proton Density Fat Fraction, Difference in LS Mean, Compound 1 − Placebo, Day 61", "setting": "[6]", "value": "−6.89", "unit": "%"}, {"measurement": "Non-responder (liver fat by MRI-PDFF)", "setting": "[7]", "value": "5 (27.8%)"}, {"measurement": "Responder (>30% liver fat reduction by MRI-PDFF)", "setting": "[7]", "value": 72, "unit": "%"}, {"measurement": "Responder (>30% liver fat reduction by MRI-PDFF)", "setting": "450 mg once daily oral, FAS population, listed as CM1", "value": "13 (72.2%)"}, {"measurement": "Non-responder (liver fat by MRI-PDFF)", "setting": "[8]", "value": "1 (14.3%)"}, {"measurement": "Responder (>30% liver fat reduction by MRI-PDFF)", "setting": "[8]", "value": 86, "unit": "%"}, {"measurement": "Responder (>30% liver fat reduction by MRI-PDFF)", "setting": "450 mg once daily oral, HbA1c 5.7%-9.0% subgroup, listed as CM1", "value": "6 (85.7%)"}, {"measurement": "MRI-Proton Density Fat Fraction, Day 61, Mean", "setting": "450 mg, All Subjects", "value": 11.2, "unit": "%"}, {"measurement": "MRI-Proton Density Fat Fraction, Day 61, Median", "setting": "450 mg, All Subjects", "value": 8.8, "unit": "%"}, {"measurement": "MRI-Proton Density Fat Fraction, Day 61 − Baseline, LS Mean", "setting": "450 mg, All Subjects", "value": "−6.03", "unit": "%"}, {"measurement": "MRI-Proton Density Fat Fraction, Day 61 − Baseline, Mean", "setting": "450 mg, All Subjects", "value": "−6.0", "unit": "%"}, {"measurement": "MRI-Proton Density Fat Fraction, Day 61 − Baseline, Median", "setting": "450 mg, All Subjects", "value": "−5.1", "unit": "%"}, {"measurement": "MRI-Proton Density Fat Fraction, Difference in LS Mean, Compound 1 − Placebo, Day 61", "setting": "450 mg, All Subjects", "value": "−6.60", "unit": "%"}, {"measurement": "MRI-Proton Density Fat Fraction, Day 61, Mean", "setting": "[9]", "value": 10.7, "unit": "%"}, {"measurement": "MRI-Proton Density Fat Fraction, Day 61, Median", "setting": "[9]", "value": 8.8, "unit": "%"}, {"measurement": "MRI-Proton Density Fat Fraction, Day 61 − Baseline, LS Mean", "setting": "[9]", "value": "−6.97", "unit": "%"}, {"measurement": "MRI-Proton Density Fat Fraction, Day 61 − Baseline, Mean", "setting": "[9]", "value": "−6.5", "unit": "%"}, {"measurement": "MRI-Proton Density Fat Fraction, Day 61 − Baseline, Median", "setting": "[9]", "value": "−4.7", "unit": "%"}, {"measurement": "MRI-Proton Density Fat Fraction, Difference in LS Mean, Compound 1 − Placebo, Day 61", "setting": "[9]", "value": "−7.45", "unit": "%"}, {"measurement": "Non-responder (liver fat by MRI-PDFF)", "setting": "All CM1 doses, FAS population", "value": "20 (33.9%)"}, {"measurement": "Non-responder (liver fat by MRI-PDFF)", "setting": "All CM1 doses, HbA1c 5.7%-9.0% subgroup", "value": "5 (22.74%)"}, {"measurement": "Relative reduction in liver fat", "setting": "high dose (450 mg)", "value": 40, "unit": "%"}, {"measurement": "Relative reduction in liver fat", "setting": "low dose (150 mg)", "value": 33, "unit": "%"}, {"measurement": "Relative reduction in liver fat", "setting": "mid dose (300 mg)", "value": 43, "unit": "%"}, {"measurement": "Liver volume, SAT, and CAP score", "setting": "overall group and subgroup with elevated HbA1c", "value": "Improvement"}, {"measurement": "Placebo-corrected mean percent change from baseline in liver fat (MRI-PDFF)", "setting": "elevated HbA1c subgroup", "value": "−42% to −50"}, {"measurement": "Placebo-corrected mean percent change from baseline in liver fat (MRI-PDFF)", "setting": "subjects overall", "value": "−33% to 43"}]}
